Literature values, collected in patent US5571832A (priority 1994, dated 1996).

Key:
kappa opioid receptors = details: cited from earlier work
sigma receptor = details: cited from earlier work

Structure (SMILES)	kappa opioid receptor ligand (kappa opioid receptors)	sigma ligand potency and selectivity (sigma receptor)
CN(C(=O)Cc1ccc(Cl)c(Cl)c1)[C@@H]1CCCC[C@H]1N1CCCC1 (relative stereo)	highly selective ligand for kappa opioid receptors	–
CN(C(=O)Cc1ccc(Cl)c(Cl)c1)[C@H]1CCCC[C@H]1N1CCCC1 (relative stereo)	–	potent and selective sigma ligands
